From publication PMC8389807 (Journal of Medicinal Chemistry, 2021) come the findings set out here.

Bounds are passed on as bounds.

This data set concerns MT-4 cells.

By CC50 is commonly meant the concentration at which the toxic effect on the cells reaches its halfway point. A lower CC50 goes with harm at low concentration. dextran sulfate-5000 [DS-5000] displayed a CC50 of over 20 µM.
